The target in this assay is T1, recombinant human TDP2 (Homo sapiens, UniProt O95551).
T1 sequence (O95551 1-362): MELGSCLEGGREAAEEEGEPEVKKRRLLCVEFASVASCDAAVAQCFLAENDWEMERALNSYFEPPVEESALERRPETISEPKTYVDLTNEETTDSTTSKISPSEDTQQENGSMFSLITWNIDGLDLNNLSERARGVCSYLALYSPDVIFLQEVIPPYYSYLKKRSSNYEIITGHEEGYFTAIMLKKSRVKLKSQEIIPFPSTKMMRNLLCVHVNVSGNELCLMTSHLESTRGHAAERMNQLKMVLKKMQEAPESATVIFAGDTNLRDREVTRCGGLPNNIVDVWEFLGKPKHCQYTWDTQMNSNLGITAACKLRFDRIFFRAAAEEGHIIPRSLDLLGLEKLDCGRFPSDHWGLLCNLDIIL
The assay can be described thus: Recombinant TDP2 assay. The assay is classed as biochemical. Particulars: read-out: TDP2 inhibitory activity IC50, mean ± SD from at least three independent experiments. The procedure, abridged:
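Human recombinant TDP2 (25 pM) with 1 nM 18-mer 5'-phosphotyrosyl ssDNA, 3'-α32P-cordycepin-labelled. Reaction ran 15 min at room temperature in Tris-HCl pH 7.5, KCl, MgCl2, EDTA, DTT, BSA and Tween 20. Stopped with formamide loading buffer, then 16% denaturing PAGE and phosphorimaging densitometry of product. Test compounds at 3-fold dilutions, 111 to 0.46 or 0.051 μM; deazaflavin positive control. IC50 is 50% enzyme inhibition.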

As to “Ethyl-2-(hydroxymethyl)-4,9-dioxo-4,9-dihydrofuro[2,3-g]quinoline-3-carbo-xylate [Compound 48]”, the IC50 – broadly, the midpoint of a concentration-inhibition curve – is more than 111 µM.
